The values that follow come from patent US12145975B2, “Fusion proteins for the treatment of cardiometabolic diseases” (Shattuck Labs, Inc., priority 2022, dated 2024).

Series [1] has as its target T1, glucose-dependent insulinotropic polypeptide receptor (GIPR) (Homo sapiens, UniProt P48546).
T1 construct: host or cells: HEK293T (GeneBLAzer GIPR-CRE-bla)
T1 sequence (P48546 22-466): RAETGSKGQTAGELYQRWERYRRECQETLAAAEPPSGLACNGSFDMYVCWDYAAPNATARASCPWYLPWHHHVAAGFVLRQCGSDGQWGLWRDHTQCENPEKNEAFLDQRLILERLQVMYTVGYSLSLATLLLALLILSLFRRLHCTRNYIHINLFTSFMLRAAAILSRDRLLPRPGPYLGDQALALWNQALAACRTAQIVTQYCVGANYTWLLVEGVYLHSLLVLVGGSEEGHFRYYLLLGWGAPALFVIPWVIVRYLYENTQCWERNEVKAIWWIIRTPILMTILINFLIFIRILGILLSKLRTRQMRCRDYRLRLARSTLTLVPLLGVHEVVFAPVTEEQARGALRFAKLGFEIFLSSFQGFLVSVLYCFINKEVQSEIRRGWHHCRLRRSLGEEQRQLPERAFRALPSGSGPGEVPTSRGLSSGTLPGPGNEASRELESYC
Put plainly: GeneBLAzer GIPR-CRE-bla HEK293T cell-based reporter assay. As to conditions: read-out: EC50 of activation of GIPR; 460/530 ratio; 5 hours incubation; purified proteins. The protocol: This assay is diagrammatically represented in FIG. 3A.
Briefly, GeneBLAzer® GIPR-CRE-bla HEK293T cells were added to wells of black-wall assay plates. […] To each well, LiverBLAzer-FRET B/G substrate mixture was added. The plate was covered with plate sealer and incubated at room temperature for 2 hours in the dark. Fluorescence emission was measured on SpectraMax plate reader at 460 nm and 530 nm with excitation set to 409 nm. After subtraction of background, average value at 460 nm (blue color) was divided by average value at 530 nm (green color) to obtain the 460/530 ratio.

The test system of a further series is HFD-fed mice. Briefly: longer-term obesity model in HFD-fed mice. As to conditions: repeated tail vein dosing. Here is the method:
Mice (Male C57BL/6) were of approximately 13 weeks of age were housed 4 mice per cage. Following 2 weeks of acclimation, mice were introduced to 60% kcal HFD (Research Diets D12492). Cages were changed once, then changed once a week. Weekly body weights and non-fasted blood glucose were collected.
Mice were injected by tail vein with vehicle or the drugs on Day 0, Day 4, Day 7, Day 10, Day 14, and Day 18. Body weights were measured every 2 days. Change in body weight was calculated and plotted.
Cumulative food intake was measured between day 0 and 3, between day 4 and 7, between day 7 and day 11, and between day 11 and day 14, and represented as average daily food intake. For food consumption, remaining food was weighed on days 3, 8, and 15, and subtracted from the starting weight. This value was then normalized to the number of mice in the cage, and the number of days the mice had access to the food prior to weighing.
Blood glucose levels were measured on Days 0, 1, 10 and 15 and plotted.
On day 19 during terminal necropsy, liver and subcutaneous white adipose tissue were recovered weighed from treated animals.
To further analyze the changes in liver, histopathological analysis was conducted. Briefly, the liver tissue was stained with hematoxylin and eosin (H&E) and evaluated using standard techniques.

As a reminder, the EC50 is the midpoint of the concentration-response curve. tirzepatide [reference compound]: the EC50 in series [1] was determined as 5.18 pM. Further, the “tolerability / clinical observations” value in the series on HFD-fed mice is “moribund, lethargic, scruffy, and consumed significantly less food and water immediately post dose”.
